This is a sample that favours compounds with a hit; in the whole collection about 1.3% have one here.
S100A4 MyoIIA: inhibitors of S100A4-myosin IIA peptide binding, primary screen, biochemical, fluorescence polarization, TAMRA-MyoIIA peptide; AID 652163, 2013; 360,000 tested, 0.14% active; inhibition, % at 10.7 µM;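 active means mean inhibition of at least 70% across replicates, with every replicate also reaching that level; inconclusive means mean inhibition reaches 70% but some replicates fall short; inactive means mean inhibition below 70%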
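Test system: S100A4 monomer protein. Medium: HEPES buffer with Ca2+, pH 7.2. Reagent: fluorescent myosin IIA peptide, 5 nM. Compound dosing: single-point compound testing. Timing: 5 min between mix addition and reading. Benchmarks: DMSO neutral and TFP positive wells.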
ERAP1 HTS inh: human ERAP1 aminopeptidase inhibitors, primary screen, biochemical, single point, plate reader; Endoplasmic reticulum aminopeptidase 1 (Homo sapiens), Q9NZ08; 340,000 tested, 0.15% active; recombinant ERAP1, Leu-AMC fluorescence, 60 min; inhibition, % at 10.7 µM;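 active means mean replicate inhibition of at least 30%, or all replicates individually reaching that 30% level; inactive means mean below 30% and not every replicate reaching it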;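 further: 0% = neutral control wells and 100% = L-leucinethiol positive control wells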
AF4-AF9 inh: inhibitors of AF4 peptide binding to AF9, primary screen, biochemical, AlphaScreen, biotin-AF4 peptide, FLAG-AF9, single point; Protein AF-9 (Homo sapiens), P42568; inhibition, % at 10 µM; 350,000 tested, 0.47% active; AID 651704, 2012;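 active means every replicate reaching a set inhibition limit, whatever the replicate mean, cut at about 25% in these data; inconclusive means mean inhibition reaches that limit but some replicates miss it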;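 further: 0% = plate neutral control median and 100% = total signal loss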
E-sel inducer: E-selectin induction in HUVECs, primary screen, imaging, HUVEC, immunofluorescence imaging, single point | P16581 | normalized: neutral wells 0, TNF-alpha wells 100 | activation, % at 7.58 µM | 260,000 tested, 0.37% active | AID 686992, 2013;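 active means mean E-selectin-positive cell signal at least 10% of the positive control, reached in at least 60% of replicates, without over 20% cell loss; inconclusive means no rule given, readout overlaps actives, possibly toxicity-flagged; inactive means the rest, including those meeting only one limit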
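Test system: HUVEC; input: 3,000 HUVEC/well; measured by: immunofluorescence imaging; read-out: % PE-positive cells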
UUG fidelity: modulators of yeast start codon fidelity, primary screen, whole organism, S. cerevisiae, single point, plate reader | AID 602363, 2012 | S. cerevisiae UUG-firefly luciferase reporter, luminescence/redox ratio | activity score, % at 18.7 µM | hit rate 0.13% among 350,000;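 active = replicate mean at a twofold rise or more, about +100% in these data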;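 also: firefly luciferase made from a UUG start codon reports start codon fidelity; reporter light over untreated wells divided by growth signal over untreated wells; some hits fall short of that in this replicate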
ARNT-TACC3 inh: disruptors of ARNT/TACC3 protein interaction, primary screen, biochemical, AlphaScreen, single concentration; 390,000 tested, 0.66% active; inhibition, % at 9.99 µM; AlphaScreen His-ARNT PAS-B/GST-TACC3 binding, luminescence; TACC3 fragment carries E629A point mutation;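 active means mean inhibition of replicates at least 50% and at least half of replicates each reaching 50%; inconclusive means half or more replicates reach 50% but mean below 50%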;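 further: 0% = complete ARNT plus TACC3 wells and 100% = ARNT alone without TACC3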
Numbers without * were called inactive; ? = inconclusive; / = no result given; ! = repeats disagree.

Sequences of proteins named here, by UniProt entry; tags and fusion partners are left off.
Protein AF-9 (Homo sapiens), P42568, UniProt P42568, whole entry, looked up: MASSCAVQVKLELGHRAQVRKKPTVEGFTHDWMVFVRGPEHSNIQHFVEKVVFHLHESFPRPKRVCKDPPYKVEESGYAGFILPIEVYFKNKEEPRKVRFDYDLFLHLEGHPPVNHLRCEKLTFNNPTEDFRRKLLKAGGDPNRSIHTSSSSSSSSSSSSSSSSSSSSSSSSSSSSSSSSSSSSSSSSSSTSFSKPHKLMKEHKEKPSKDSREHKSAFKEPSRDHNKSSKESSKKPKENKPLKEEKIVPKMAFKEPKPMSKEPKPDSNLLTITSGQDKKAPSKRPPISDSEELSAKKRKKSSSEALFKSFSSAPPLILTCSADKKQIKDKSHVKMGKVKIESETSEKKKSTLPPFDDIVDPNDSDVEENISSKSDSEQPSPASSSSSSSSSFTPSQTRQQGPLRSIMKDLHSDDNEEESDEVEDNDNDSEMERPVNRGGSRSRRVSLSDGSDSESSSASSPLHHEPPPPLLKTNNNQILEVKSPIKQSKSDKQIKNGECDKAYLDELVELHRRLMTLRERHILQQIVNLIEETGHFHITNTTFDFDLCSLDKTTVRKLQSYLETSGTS

SMILES	S100A4 MyoIIA	ERAP1 HTS inh	AF4-AF9 inh	E-sel inducer	UUG fidelity	ARNT-TACC3 inh
Cc1ccc(S(=O)(=O)N2C[C@@H](O)COC[C@H]3O[C@H](CC(=O)NCC4CCCCC4)CC[C@@H]32)cc1	6	2	30*	0	41	13
CCCNC(=O)N1C[C@H](O)COC[C@@H]2O[C@H](CC(=O)NCCCN3CCOCC3)CC[C@H]21	13	-4	-3	0	-13	-8
O=C(C[C@H]1CC[C@@H]2[C@H](COC[C@@H](O)CN2C(=O)Nc2ccc(F)cc2)O1)NCCc1ccccc1	106*	-8	0	0	56	-5
CN(C)CC#Cc1ccc([C@@H]2[C@@H](CO)N3C(=O)CN(C(=O)Cc4cccnc4)C[C@H]23)cc1	-2	-1	-1	0	/	/
CNC[C@H]1Oc2ccc(NC(=O)NC3CCCCC3)cc2CC(=O)N([C@@H](C)CO)C[C@H]1C	-9	-2	-3	0	16	14
COc1ccc2c3c(n(C)c2c1)[C@H](CO)N(C)CC31CCN(CC2CC2)CC1	/	/	1	0	/	/
CCC(=O)Nc1ccc2c(c1)C(=O)N(C)C[C@@H](OC)[C@H](C)CN(C(=O)CN(C)C)[C@@H](C)CO2	/	/	/	0	/	/
COc1cccc(S(=O)(=O)N[C@@H]2CC[C@H](CCNC(=O)Nc3cc(F)ccc3F)O[C@H]2CO)c1	-3	-1	7	0	6	3
O=C(C[C@@H]1CC[C@H]2[C@@H](COC[C@@H](O)CN2C(=O)Nc2ccc(F)cc2)O1)NCCCN1CCOCC1	-4	4	31*	0	/	-6
COCC[N+]1(C)CCCCC1	10	89*	-1	1	-15	-11
O=C(c1ccccc1)N1[C@H](CO)[C@H](c2ccccc2)C12CN(CCC(F)(F)F)C2	2	1	0	0	/	/
CCN1C(=O)C(CC(=O)Nc2ccc(OC)cc2)N(CCCN2CCN(c3ccc(OC)cc3)CC2)C1=S (stereo not drawn)	2	-4	28*	/	-2	9
CCN1C(=O)C(CC(=O)Nc2ccc(OC)cc2)N(CCN2CCOCC2)C1=S (stereo not drawn)	-4	4	4	5	-8	2
NCCCC[C@H](N)c1nnc([C@H](CCC(=O)O)NC(=O)C2CCNCC2)o1	3	4	28*	0	-15	5
CC[C@]12C(=O)N(C)C[C@H]([C@@H]3C(=O)N(C)C(=O)[C@@H]31)N2C(=O)c1ccc(C)cc1	-18	-3	51*	0	-2	-1
COc1cccc(-c2cnc3c(c2)C(=O)N([C@H](C)CO)C[C@@H](C)[C@H](CN(C)Cc2ccc(C(=O)O)cc2)O3)c1	6	-13	-4	0	-6	28
CCOC(=O)CC1=NN(c2ccccc2)C(=O)C1=c1sc(=C2SC(C)=C(C)N2CC)c(=O)n1CC	-5	/	40*	0	-13	-3
CC(=Nc1ccccc1)C1=C(O)CCCC1=O	-8	36*	-5	0	1	-2
COc1ccccc1OCCNC(=O)C1CCCCC1	0	32*	-1	0	1	-2
COc1ccc(OC)c(NC(=O)CN2C(=O)COc3ccc(S(=O)(=O)N4CCCC4)cc32)c1	0	-6	35*	1	1	6
C[C@@H]1CN([C@@H](C)CO)C(=O)c2cc(NC(=O)CCC(F)(F)F)ccc2O[C@@H](C)CCCCO[C@H]1CN(C)S(=O)(=O)c1ccc(F)cc1	-81	-4	-6	/	38	/
C[C@@H]1CN([C@H](C)CO)C(=O)c2cc(NC(=O)CCN3CCOCC3)ccc2O[C@@H]1CN(C)Cc1ccc2c(c1)OCO2	8	0	-4	0	-6	-3
O=C(OCC12CC3CC(CC(C3)C1)C2)c1ccc(NCc2cc(O)ccc2O)cc1	-2	2	?	0	/	1
O=C(OCCC12CC3CC(CC(C3)C1)C2)c1ccc(NCc2cc(O)ccc2O)cc1	-2	2	28*	0	/	27
O=C(NC(=S)N1CCN(c2ccc([N+](=O)[O-])cc2)CC1)c1ccccc1	8	-1	-3	33*	/	10
New compounds follow:
SMILES	S100A4 MyoIIA	ERAP1 HTS inh	AF4-AF9 inh	E-sel inducer	UUG fidelity	ARNT-TACC3 inh
O=C(CN1C(=O)C2(OCCO2)c2cc(Br)ccc21)NO	-4	34*	/	0	/	7
CN1CCN(/N=C/c2ccc(-c3ccccc3)cc2)CC1	2	3	35*	/	-15	14
C(=N\N1CCN(Cc2ccccc2)CC1)/c1ccc(-c2ccccc2)cc1	5	1	-4	-9	-17	7
CN1CCN(/N=C/c2c3ccccc3c(Cl)c3ccccc23)CC1	5	-2	25*	0	/	-15
CSc1ccc(/C=N/N2CCN(C)CC2)cc1	2	6	8	0	-17	13
C[C@H](CO)N1C[C@H](C)[C@@H](CN(C)Cc2ccc(C(F)(F)F)cc2)Oc2ccc(NC(=O)C3CC3)cc2CC1=O	2	4	5	0	7	-17
CCn1c2ccccc2c2nnc(SCN3C(=O)c4ccccc4C3=O)nc21	-5	/	/	121*	/	-4
O=C(O)c1nnsc1-c1csnn1	3	1	-3	0	/	-4
Nc1csnc1C(=O)O	/	/	/	/	-16	46*
O=c1[nH]c(=S)[nH]c2scc(-c3ccc(Br)cc3)c12	-1	/	-3	0	-28	0
O=c1[nH]c(=S)[nH]c2sccc12	6	50*	-7	-2	/	2
Cn1nc(C(=O)NNC(=O)c2ccccc2Br)c2ccccc2c1=O	2	-1	-21	237*	-16	-2
Cn1nc(C(=O)NCc2cccnc2)c2ccccc2c1=O	/	/	/	/	-13	2
Cn1nc(C(=O)NNC(=O)c2ccccc2F)c2ccccc2c1=O	0	-7	-1	/	-41	2
Cn1nc(C(=O)Nc2cccnc2)c2ccccc2c1=O	/	/	/	-1	9	46*
C/C=C/c1ccc(C2[C@H]3CNC[C@@H]2N3S(=O)(=O)c2ccccc2C)cc1 (stereo partly drawn)	101*!	-3	5	0	/	/
CCN(CC)c1ccc(Nc2cc3n(c(=O)n2)CCc2cc(OC)c(OC)cc2-3)cc1	15	-1	6	0	/	/
COc1cc2c(cc1OC)-c1cc(Nc3ccc(N(C)C)cc3)nc(=O)n1CC2	4	-10	1	/	/	45*
O=C(C1CC1)N1[C@@H](CO)[C@@H](c2ccccc2)C12CN(Cc1cncnc1)C2	-8	-1	-2	0	/	/
Cc1nnc(NC(=O)CSc2nnc(CC(=O)Nc3ccccc3F)n2C)s1	-1	-3	53*	/	-19	-3

Copied from the list:
S100A4 MyoIIA, CCn1c2ccccc2c2nnc(SCN3C(=O)c4ccccc4C3=O)nc21 = -5
AF4-AF9 inh, CN1CCN(/N=C/c2ccc(-c3ccccc3)cc2)CC1 = 35*
E-sel inducer, Cn1nc(C(=O)NNC(=O)c2ccccc2Br)c2ccccc2c1=O = 237*
ARNT-TACC3 inh, C[C@H](CO)N1C[C@H](C)[C@@H](CN(C)Cc2ccc(C(F)(F)F)cc2)Oc2ccc(NC(=O)C3CC3)cc2CC1=O = -17

Three neighbouring compounds already listed, for reference:
SMILES	S100A4 MyoIIA	ERAP1 HTS inh	AF4-AF9 inh	E-sel inducer	UUG fidelity	ARNT-TACC3 inh
COc1cc2c(cc1OC)-c1cc(Nc3ccc(N(C)C)cc3)nc(=O)n1CC2	4	-10	1	/	/	45*
O=C(C1CC1)N1[C@@H](CO)[C@@H](c2ccccc2)C12CN(Cc1cncnc1)C2	-8	-1	-2	0	/	/
Cc1nnc(NC(=O)CSc2nnc(CC(=O)Nc3ccccc3F)n2C)s1	-1	-3	53*	/	-19	-3
